According to patent US20050196403A1:

Biological target: HLA-A*2401 (human)
Test: competition with 125I probe peptide, purified HLA class I

IC50: 109 nM
Sequence: TYQGSYGF (p53 position 102) (peptide)
